Tests used:
Assay type in all cases: cell-based
[1] = target: T1, glucagon-like peptide-1 (GLP1) receptor (Homo sapiens, UniProt P43220); assay: GLP-1 activity EC50 of OXM analogs and GLP-1 therapeutics (Example 4, Table 9); conditions: relative to the OXM analog alone
T1 construct: expressed in transfected cells; host or cells: CHO-K1

Protein sequences, listed by entry. Tags and fused reporters are not part of them. Residues count along the entry.
UniProt P43220, 24-463: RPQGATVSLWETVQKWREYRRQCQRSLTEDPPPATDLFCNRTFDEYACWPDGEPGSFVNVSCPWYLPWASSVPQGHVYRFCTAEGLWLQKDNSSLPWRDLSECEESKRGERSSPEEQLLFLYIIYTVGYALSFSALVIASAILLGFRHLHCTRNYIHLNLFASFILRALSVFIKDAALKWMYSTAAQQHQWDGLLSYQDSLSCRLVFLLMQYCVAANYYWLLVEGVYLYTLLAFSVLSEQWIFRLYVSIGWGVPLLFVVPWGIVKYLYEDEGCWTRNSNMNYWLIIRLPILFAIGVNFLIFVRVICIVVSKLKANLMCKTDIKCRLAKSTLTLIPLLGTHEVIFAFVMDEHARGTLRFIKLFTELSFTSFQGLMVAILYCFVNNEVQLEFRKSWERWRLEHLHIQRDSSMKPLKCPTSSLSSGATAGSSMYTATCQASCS
UniProt P47871, 26-477: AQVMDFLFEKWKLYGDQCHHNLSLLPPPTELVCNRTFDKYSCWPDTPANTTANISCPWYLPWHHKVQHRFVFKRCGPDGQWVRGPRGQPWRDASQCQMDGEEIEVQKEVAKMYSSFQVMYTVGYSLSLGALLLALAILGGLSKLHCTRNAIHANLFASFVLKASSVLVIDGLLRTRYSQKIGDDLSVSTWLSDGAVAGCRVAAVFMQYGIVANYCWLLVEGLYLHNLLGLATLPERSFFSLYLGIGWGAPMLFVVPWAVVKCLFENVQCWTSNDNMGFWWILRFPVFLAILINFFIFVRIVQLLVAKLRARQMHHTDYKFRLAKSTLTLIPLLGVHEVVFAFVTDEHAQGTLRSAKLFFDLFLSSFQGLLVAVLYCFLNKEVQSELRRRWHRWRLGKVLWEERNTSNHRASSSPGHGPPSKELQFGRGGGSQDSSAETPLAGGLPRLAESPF

GLP1 [2] = target: T2, GLP1 (Homo sapiens, UniProt P43220); assay: CBA potency assay, GLP1 (Tables 10 and 11); conditions: Table 10
GCGR = GCGR (Homo sapiens, UniProt P47871); assay: Glucagon activity in vitro of PEGylated and acylated OXM peptide analogs (Table 12)
Procedure: The potential benefits of novel acylated OXM products relative to the PEGylated OXM peptide were evaluated for GLP-1 and Glucagon activity in vitro, molecular weight, dosing, and efficacy in a DIO Mouse model.
Novel and acylated long-acting OXM peptide analogs were synthesized and identified with targeted GLP-1 and Glucagon activities. The potency of the acylated OXM peptides was compared with the native OXM peptide alone and Pegylated OXM peptide to evaluate the impact of acylation on GLP-1 and Glucagon activities.

GLP1 [3] = target: T2, GLP1; assay: GLP-1 activity in vitro of PEGylated and acylated OXM peptide analogs (Table 12); conditions: relative to the OXM peptide

OPK-88003 API: SEQ ID NO: 3 where Xaa38=Cys-PEG20 and Xaa39=Cys-PEG20
inhibition of GLP-1 activity by PEGylation [1]: over 20 fold | % EC50 compare to KPI (GLP1) (GLP1 [2]): 10.8% | EC50 (GCGR; Table 12): 16.8 nM | decrease of glucagon activity by PEGylation (GCGR; relative to the OXM peptide): over 20 fold | decrease of GLP-1 activity by PEGylation (GLP1 [3]): 10-15 fold

— patent publication US20250326814A1, “MODIFIED OXYNTOMODULIN AND METHODS OF USE THEREOF” (OPKO BIOLOGICS LTD., priority 2024, published 2025)
